# Reference: patent US20200207868A1 (UNIVERSITY OF SASKATCHEWAN, published 2020)
# Protein sequences, listed by entry. Tags and fused reporters are not part of them. Residues count along the entry.
# UniProt P21860, 20-643 limits assumed: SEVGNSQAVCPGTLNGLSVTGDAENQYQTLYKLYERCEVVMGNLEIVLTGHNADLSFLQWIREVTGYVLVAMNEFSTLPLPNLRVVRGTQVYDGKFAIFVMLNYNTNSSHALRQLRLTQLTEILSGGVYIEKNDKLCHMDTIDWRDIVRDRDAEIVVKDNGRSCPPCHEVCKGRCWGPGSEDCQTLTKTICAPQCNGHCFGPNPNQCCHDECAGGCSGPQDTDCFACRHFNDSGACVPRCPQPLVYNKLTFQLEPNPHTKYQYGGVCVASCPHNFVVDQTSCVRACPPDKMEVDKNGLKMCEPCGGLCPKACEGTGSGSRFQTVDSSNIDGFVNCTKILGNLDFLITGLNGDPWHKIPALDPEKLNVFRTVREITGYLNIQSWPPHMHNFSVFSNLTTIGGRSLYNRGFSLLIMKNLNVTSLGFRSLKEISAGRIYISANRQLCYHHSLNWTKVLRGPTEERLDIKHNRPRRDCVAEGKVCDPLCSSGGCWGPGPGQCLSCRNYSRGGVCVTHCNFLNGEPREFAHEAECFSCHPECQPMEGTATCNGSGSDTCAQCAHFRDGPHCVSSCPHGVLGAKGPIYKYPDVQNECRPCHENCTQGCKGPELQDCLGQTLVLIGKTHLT
# B1: HER3-3 IgG (antibody, V domains shown)
# VH: not shown
# VL: DIQMTQSPSSLSASVGDRVTITCRASQGISNYLAWYQQKPGKAPKLLIYAASSLQSGVPSRFSGSRSGTDFTLTISSLQPEDFATYYCQQYGWLPLTFGQGTKVEIKR
# Experiments:
# [1] = target: HER3 (as used in the biolayer interferometry of Example 2) (UniProt P21860 20-643, limits assumed); assay: BLI
# [2] = target: T1, recombinant Fc-tag-fused human HER3 ectodomain (HER3-ECD-Fc), Sino Biological (human, UniProt P21860 20-643); assay: BLI, IgG on amine-reactive (ARG2) biosensor, HER3-ECD in solution
# T1 construct: extracellular domain; Bought from Sino Biological Inc; also called recombinant HER3-ECD; not shown: Fc tag of the purchased fusion protein
binder,measurement,setting,value
B1,Kd,[1],0.34 nM
same,Kd,[2],0.43 nM
